The source of these data is ChEMBL document CHEMBL5154931, “Structure-Activity Relationships of 8-Hydroxyquinoline-Derived Mannich Bases with Tertiary Amines Targeting Multidrug-Resistant Cancer” (J Med Chem, 2022).

This is a selection: effects in other tests are not listed, and their absence says nothing.

This experiment in a line: Selectivity ratio of IC50 for cytotoxicity against human MES-SA cells assessed as cell growth inhibition to IC50 for cytotoxicity against multidrug resistance human MES-SA/Dx5 cells assessed as cell growth inhibition.

`Oc1c(CN(CCCl)CCCl)ccc2cccnc12`: the Ratio IC50 is 0.91.
